# Tests used:
# [1] = Solubility versus pH curves (centrifugation, reverse HPLC); type: physicochemical; details: Example 3 mix, 0.6 mM GlyA21 ArgB31 ArgB32 human insulin, 0.3 mM Zn(Ac)2, 30 mM phenol, 100 μM pramlintide
# Protocol: Solubility versus pH curves were measured in the following way. A formulation was prepared and aliquotes were adjusted to pH values in the desired range by adding HClO4 or HCl and NaOH. These samples were left equilibrating at room temperature for 2-3 days. Then the samples were centrifuged. A small aliquot of each sample was withdrawn for reverse HPLC analysis for determination of the concentration of the proteins in solution. The pH of each sample was measured after the centrifugation, and the concentration of each protein was depicted versus the measured pH.
# [2] = pramlintide without the insulin analogue; cited from earlier work
compound,measurement,setting,value
"CC[C@H](C)[C@H](NC(=O)[C@@H]1CCCN1C(=O)CNC(=O)[C@H](Cc1ccccc1)NC(=O)[C@H](CC(N)=O)NC(=O)[C@H](CC(N)=O)NC(=O)[C@H](CO)NC(=O)[C@H](CO)NC(=O)[C@H](Cc1c[nH]cn1)NC(=O)[C@@H](NC(=O)[C@H](CC(C)C)NC(=O)[C@H](Cc1ccccc1)NC(=O)[C@H](CC(N)=O)NC(=O)[C@H](C)NC(=O)[C@H](CC(C)C)NC(=O)[C@H](CCCNC(=N)N)NC(=O)[C@H](CCC(N)=O)NC(=O)[C@@H](NC(=O)[C@H](C)NC(=O)[C@@H]1CSSC[C@H](NC(=O)[C@@H](N)CCCCN)C(=O)N[C@@H](CC(N)=O)C(=O)N[C@@H]([C@@H](C)O)C(=O)N[C@@H](C)C(=O)N[C@@H]([C@@H](C)O)C(=O)N1)[C@@H](C)O)C(C)C)C(=O)N[C@@H](CC(C)C)C(=O)N1CCC[C@H]1C(=O)N1CCC[C@H]1C(=O)N[C@H](C(=O)N[C@@H](CC(N)=O)C(=O)N[C@H](C(=O)NCC(=O)N[C@@H](CO)C(=O)N[C@@H](CC(N)=O)C(=O)N[C@H](C(=O)N[C@@H](Cc1ccc(O)cc1)C(N)=O)[C@@H](C)O)C(C)C)[C@@H](C)O [pramlintide, Pro25 Pro28 Pro29-h-amylin]",solubility state at pH 7,[1],completely precipitated
same,"solubility at pH 7.4 (usual behaviour, alone)",[2],soluble

# — US20100222251A1, “MIXTURE COMPRISING AN AMYLIN PEPTIDE AND A PROTRACTED INSULIN” (Novo Nordisk A/S, priority 2007, published 2010)
